Values joined by “and” are separate entries in the source; they are usually repeats but may differ in a detail not shown here. Equal values may be shown once.
Legend:
Panc-1 = assay: MTT assay, growth inhibition of human tumor cells; assay type: cell-based; conditions: read-out: IC50 Panc-1, Panc-1 cells, 4 days treatment, several values = separate determinations
A549 = assay: MTT assay, growth inhibition of human tumor cells; assay type: cell-based; conditions: read-out: IC50 A549, 4 days treatment, several values = separate determinations

| Compound | IC50 (Panc-1) | IC50 (A549) |
| --- | --- | --- |
| cis-[Pt^IV(NH3)2Cl2NO2(ONO)] | 15 µM | 28 µM |
| [NH2][Pt]1([NH2])([O][As](O)O)([N+](=O)[O-])[O]c2ccccc2[O]1 | 73 µM |  |
| [NH2][Pt]([NH2])([Cl])([Cl])([NH]Nc1cc([N+](=O)[O-])cc([N+](=O)[O-])c1)[N+](=O)[O-] | 3.3 µM and 4.5 µM |  |
